Test results taken from patent publication US6794384B1, “Hydroxylation activated drug release” (De Montfort University, priority 1998, dated 2004).

Assays:
[1] = tested on: V79mzhu1B1 cells (V791B1 Cells); details: for fold more cytotoxic against the cell line expressing CYP1B1: CYP1B1 expressing versus non-expressing cell line, from Table 1
[2] = tested on: V79mz cells (V79 Cells); details: read-out: Growth Inhibition of Cells not Expressing CYP1B1, IC50, V79 Cells, MTT, 48 hours incubation, ± 2%

Substance	fold more cytotoxic against the cell line expressing CYP1B1 [1] [fold]	Selectivity Factor ([1]; V79 Cells versus V791B1 Cells)	IC50 ([1]; read-out: Growth Inhibition of Cells Expressing CYP1B1, IC50, V791B1 Cells, V791B1 cells expressing CYP1B1, MTT, 48 hours incubation, ± 2%) [nM]	IC50 [2] [nM]
3-Methoxybenzyl/Mustard Prodrug [XVIII]	3	–	–	–
3,5-Dimethoxybenzyl/Mustard Prodrug [XIX]	3	3.1	1000	3100
